Experimental data reported in patent publication US11612667B2, “Enhanced in vivo targeting of radiolabelled peptides with the means of enzyme inhibitors” (Advanced Accelerator Applications USA, Inc., priority 2011, dated 2023).

Columns and labels:
[1] = parameters: species or system Swiss albino mice; conditions: mouse, in vivo, 5 min
Method: Whole blood was collected 5 min postinjection (pi), blood cells were removed and major proteins were precipitated and then the supernatant was analyzed by RP-HPLC coupled to a gamma detector.
Alternatively, the dual NEP and ACE inhibitor racecadotril (race; 2.5 mg) was ip injected 45-60 min prior to radioligand injection and the same procedure was followed as described above.
To test the in vivo stability, ^111In-DOTA-MG11 was injected in the tail vein of Swiss albino mice and 5 min afterwards blood was collected, blood cells were removed and major proteins were precipitated and then the supernatant was analyzed by RP-HPLC coupled to a gamma detector. As shown in the radiochromatogram of FIG. 3A, the major part of ^111In-DOTA-MG11 was consumed during this period (<5% intact peptide still detected), in agreement with previous reports. […]
For ex vivo blood analysis, [^99mTc]Demotensin 6 was injected in the tail vein of Swiss albino mice and blood collected 5 min thereafter was analyzed as previously described. […]
Additional groups of radiopeptides with relevance for nuclear medicine applications have been studied for their in vivo stability. […] Blood was collected 5 min afterwards, and analyzed by RP-HPLC after suitable preparation, as previously described.

[2] = system: human prostate adenocarcinoma PC-3 xenografts (GRPR+); parameters: species or system SCID mice; conditions: SCID, mouse, in vivo, 4 h
Method: FIG. 6C: Biodistribution of [^99mTc]SAR-NC1 in SCID mice bearing human prostate adenocarcinoma PC-3 xenografts (GRPR^+) at 4 h pi.
In FIG. 6B and FIG. 7B, the biodistribution of [^99mTc]SAR-NC1 and [^99mTc]SAR-NC6 in SCID mice bearing human prostate adenocarcinoma PC-3 xenografts (GRPR^+) at 4 h respectively, after injection of the radioligand alone or with co-injection of PA (300 μg) are shown.
It is interesting to note that with co-injection of the blocker and PA tumor values were minimal (0.69±0.03% ID/g) showing that PA provoked a GRPR-mediated increase in tumor uptake.
The effect of PA-induced stabilization of [^99mTc]Demobesin 1 on tumor uptake is illustrated in FIG. 10B, showing the biodistribution at 4 h pi after injection of [^99mTc]Demobesin 1 in SCID mice bearing human PC-3 xenografts (GRPR^+) (control), or with PA (300 μg).

CSCC[C@H](NC(=O)[C@H](CC(C)C)NC(=O)[C@H](Cc1c[nH]cn1)NC(=O)CN(C)C(=O)[C@@H](NC(=O)[C@H](C)NC(=O)[C@H](Cc1c[nH]c2ccccc12)NC(=O)[C@H](Cc1c[nH]cn1)NC(=O)[C@H](CC(N)=O)NC(=O)CNC(=O)C(CNCCN)CNCCN)C(C)C)C(N)=O [[^99mTc]SAR-NC6, ^99mTc-N4-Gly-Asn-His-Trp-Ala-Val-Sar-His-Leu-Met-NH2, metal not drawn]
percentage of parent peptide remaining intact [1]: 35%
uptake in PC-3 tumor [2]: 9.22±1.40 % ID/g
